# Test results: PubChem BioAssay AID485344 (National Center for Advancing Translational Sciences (NCATS), 2010)
# Protein sequences, listed by entry. Tags and fused reporters are not part of them.
# UniProt P14416, whole entry: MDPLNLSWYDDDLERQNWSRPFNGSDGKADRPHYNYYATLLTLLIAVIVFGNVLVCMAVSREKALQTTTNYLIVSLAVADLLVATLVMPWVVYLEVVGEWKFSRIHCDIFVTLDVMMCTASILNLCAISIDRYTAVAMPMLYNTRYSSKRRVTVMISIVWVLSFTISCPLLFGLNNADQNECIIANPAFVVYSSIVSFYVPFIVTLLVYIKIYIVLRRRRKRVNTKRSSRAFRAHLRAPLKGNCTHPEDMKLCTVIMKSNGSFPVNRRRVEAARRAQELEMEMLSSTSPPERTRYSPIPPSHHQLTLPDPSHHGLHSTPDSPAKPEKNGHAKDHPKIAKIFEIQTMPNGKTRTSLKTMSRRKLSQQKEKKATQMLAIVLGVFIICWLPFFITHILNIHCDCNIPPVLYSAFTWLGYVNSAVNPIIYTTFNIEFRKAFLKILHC
# The entries are a selection whose mix differs from that of the whole data set. Some salts or complexes appear as unconnected parts, following the source record. The source made the active and inactive calls. Cut-off read from the data, not from the text of the source: active = inhibition above about 30%; inactive = below that, where a call was filed.
# Biological target: D(2) dopamine receptor (Homo sapiens) (UniProt P14416)
# Test: HTS Assay for Allosteric Antagonists of the Human D2 Dopamine Receptor: Primary Screen for Antagonists; note: 0% is about no effect
# Conditions: HEK293 TREx D2 cells, calcium flux, dopamine EC80; at 10 µM; stronger effect = higher value
# From the text: NIH Chemical Genomics Center [NCGC] NIH Molecular Libraries Probe Centers Network [MLPCN] MLPCN Grant: NS064831-01 Assay Submitter (PI): David Sibley Dopamine receptors (DARs) are involved in the etiology and/or therapy of a number of neuropsychiatric and endocrine disorders. For instance, all receptor-based antiparkinsonian drugs work via stimulating the D2 DAR subtype whereas all FDA-approved antipsychotic agents are antagonists of this receptor. […] There are three different types of allosteric modulators that we are seeking, two of which will stimulate or augment receptor signaling, allosteric agonists and potentiators, while the third, allosteric antagonists, will attenuate receptor signaling. The present primary screening assay measures compound antagonism after an EC80 addition of dopamine by tracking calcium flux in a […], inducible Hek293 Trex D2 cell line.
# Freshly passaged cells are plated in 1536 well black, clear bottom plates at a density of 4000 cells/well in 3 ul of complete media containing 1x tetracycline inducer. After an overnight incubation at 30 C in 5% CO2, cells are loaded with 2 ul of the no wash Calcium Assay Kit (ABD Bioquest) and incubated at room temperature for 30 to 90 minutes. Agonist read: A 10 cycle (1 second/cycle) baseline measurement is taken and then the FDSS online 1536 pintool delivers 23 nl of compound library (as well as dopamine controls) to the plate. The plate is measured for kinetically at 1 cycle/sec for 180 seconds. Following the 180 second read, 1 ul of an EC80 (negative modulation assay) is delivered by an onboard pipette head. Measurements are taken kinetically for an additional 180 seconds.
row,Compound,inhibition
1,CCOc1ncccc1C(=O)NCC1(N2CCOCC2)CCCCC1,inactive: 5.54%
2,CN1CCC(Nc2ccc(F)c(Cl)c2)CC1,inactive: -2.54%
3,CCCOc1ccc(C(=O)NCC2(N(C)C)CCCCC2)cc1,inactive: 1.57%
4,CC(C)(C)OC(=O)N1CCC(Nc2ccccc2)CC1,inactive: 3.7%
5,O=C(O)C1(Nc2ccccc2)CCN(Cc2ccccc2)CC1,inactive: 7.76%
6,CCC(CO)(C(=O)OC1CN2CCC1CC2)c1ccccc1 (stereo not drawn),inactive: -4.21%
7,COc1cccc(C(=O)N(c2cc(C)cc(C)c2)C2CCN(C(=O)OC(C)(C)C)CC2)c1,inactive: 5.08%
8,COc1cc(OC)cc(C(=O)NCC2(N3CCOCC3)CCCCC2)c1,inactive: -1.5%
9,CCCOc1ccc(C)cc1CN(CCCl)CCCl,inactive: -8.67%
10,CN1CCC(Nc2ccc(Cl)cc2)CC1,inactive: -5.75%
11,COc1cc(OC)cc(C(=O)NCC2(N3CCCCC3)CCCCC2)c1,inactive: -0.0257%
12,Cc1ccc(C(=O)NCC2(N3CCCCC3)CCCCC2)o1,inactive: 3.18%
13,Fc1ccccc1NC1CCN(Cc2ccccc2)CC1,inactive: -34.3%
14,CCN1CCC(Nc2cccc(F)c2)CC1,inactive: -2.76%
15,O=C(NCC1(N2CCCCC2)CCCCC1)c1ccco1,inactive: -5.34%
16,N#Cc1ccc(C(=O)NCC2(N3CCCCC3)CCCCC2)cc1,inactive: -6.74%
17,CCOC(=O)C(CC)C1=NC(C)(C)Cc2ccccc21.O=[N+]([O-])c1cc([N+](=O)[O-])c(O)c([N+](=O)[O-])c1 (stereo not drawn),inactive: 2.19%
18,c1ccc(CN2CCC(Nc3ccccc3)CC2)cc1,inactive: -18%
19,CN(C)C1(CNC(=O)c2cccc(C#N)c2)CCCCC1,inactive: 8.36%
20,O=C(NCC1(N2CCOCC2)CCCCC1)c1cc(Br)ccc1Cl,inactive: -1.63%
21,N/C(=N\O)c1c(N)no[n+]1[O-],inactive: 18.7%

row,Compound,inhibition
1,CCOC(=O)N1CCC(Nc2ccc(C)cc2)CC1,inactive: 1.27%
2,O=C(OC1CN2CCC1CC2)C1c2ccccc2C=Cc2ccccc21 (stereo not drawn),inactive: 6.8%
3,O=C(O)c1cccc(Nc2c([N+](=O)[O-])cc([N+](=O)[O-])cc2[N+](=O)[O-])c1,inactive: 7.66%
4,COc1ccc(CN(CCCl)CCCl)cc1Cl,inactive: 5.67%
5,CN(C)c1cccc(C(=O)NCC2(N3CCCCC3)CCCCC2)c1,inactive: 1.87%
6,O=[N+]([O-])c1cc([N+](=O)[O-])c(OC2CCCCC2O)c([N+](=O)[O-])c1 (stereo not drawn),inactive: -2.59%
7,CC(C)c1ccc(NC2CCN(C(=O)OC(C)(C)C)CC2)cc1,inactive: -3.49%
8,COc1cc(OC)c(C(=O)NCC2(N(C)C)CCCCC2)cc1OC,inactive: -20.3%
9,COc1ccc2c(c1O)-c1c(O)c(OC)cc3c1[C@H](C2)[N+](C)(C)CC3.O=[N+]([O-])c1cc([N+](=O)[O-])c([O-])c([N+](=O)[O-])c1[O-],inactive: 21%
10,O=C(OC1CN2CCC1CC2)c1ccc([N+](=O)[O-])cc1 (stereo not drawn),inactive: 9.35%
11,CCCOc1ccc(C(=O)NCC2(N(C)C)CCCCC2)cc1OC,inactive: 15.9%
12,O=C(NCC1(N2CCCCC2)CCCCC1)c1ccc(OC(F)F)cc1,inactive: 20.9%
13,CSc1ccc(C(=O)NCC2(N3CCOCC3)CCCCC2)cc1,inactive: -12.4%
14,O=C(NCC1(N2CCCCC2)CCCCC1)c1cccc([N+](=O)[O-])c1,inactive: -15.3%
15,CCN1CCC(Nc2ccc(Cl)cc2)CC1,inactive: -6.55%
16,N#CC1(Nc2ccccc2)CCN(CCc2ccccc2)CC1,inactive: 24.6%
17,O=C(NCC1(N2CCCCC2)CCCCC1)c1cccc(C(F)(F)F)c1,inactive: -7.37%
18,O=[N+]([O-])c1cc([N+](=O)[O-])c(NCC2CCS(=O)(=O)C2)c([N+](=O)[O-])c1 (stereo not drawn),inactive: -1.13%
19,COc1ccc(NC2CCN(C(=O)OC(C)(C)C)CC2)cc1,inactive: 10.3%
20,CC(C)c1ccc(C(=O)NCC2(N3CCOCC3)CCCCC2)cc1,inactive: 3.29%
21,CN1CCN(CCOC(=O)C(O)(c2ccccc2)c2ccccc2)CC1,inactive: 1.68%

row,Compound,inhibition
1,O=C(NCC1(N2CCOCC2)CCCCC1)c1cc(=O)[nH]c2ccccc12,inactive: -0.267%
2,COc1cc(C(=O)NCC2(N3CCCCC3)CCCCC2)ccc1OC(F)F,inactive: 28.7%
3,CCOc1ccc(C)cc1CN(CCCl)CCCl,inactive: -0.585%
4,O=C(NCC1(N2CCCCC2)CCCCC1)c1ccc(F)cc1,inactive: 0.161%
5,CCOC(=O)N1CCC(Nc2ccc(F)cc2)CC1,inactive: 5.44%
6,COc1ccc(NC2CCN(CCc3ccccc3)CC2)c(OC)c1,inactive: 6.81%
7,CCOC(=O)N1CCC(Nc2cccc(C)c2)CC1,inactive: 4.22%
8,Cc1ccc(OCC(C)C)c(CN(CCCl)CCCl)c1,inactive: 17.8%
9,O=C(NCC1(N2CCCCC2)CCCCC1)c1ccc(=O)[nH]c1,inactive: -0.0163%
10,O=C(NCC1(N2CCCCC2)CCCCC1)c1cccs1,inactive: 22.1%
11,COc1ccc(C(=O)NCC2(N3CCCCC3)CCCCC2)cc1,inactive: -11.6%
12,COc1ccc(C(=O)NCC2(N3CCCCC3)CCCCC2)c(OC)c1OC,inactive: 1.39%
13,CC(C)(C)OC(=O)N1CCC(N(C(=O)c2ccccc2)c2ccc(F)cc2)CC1,inactive: 22.2%
14,CSc1ccccc1C(=O)NCC1(N2CCCCC2)CCCCC1,inactive: 12.2%
15,O=C(NCC1(N2CCOCC2)CCCCC1)c1cc2ccccc2o1,inactive: 7.52%
16,O=C(NCC1(N2CCCCC2)CCCCC1)c1ccc(Cl)nc1,inactive: -2.06%
17,Cc1cc(C)cc(N(C(=O)c2ccccc2)C2CCN(C(=O)OC(C)(C)C)CC2)c1,inactive: -3.99%
18,CCOC(=O)N1CCC(Nc2ccc(OC)cc2)CC1,inactive: -5.52%
19,N#CC1(Nc2ccccc2)CCN(Cc2ccccc2)CC1,inactive: -6.14%
20,O=C(OC1CN2CCC1CC2)C1c2ccccc2Oc2ccccc21 (stereo not drawn),inactive: -6.9%
21,COc1ccc(Cl)cc1C(=O)NCC1(N2CCOCC2)CCCCC1,inactive: 0.325%
